In US11691963B2, “6-heteroaryloxy benzimidazoles and azabenzimidazoles as JAK2 inhibitors” (Ajax Therapeutics, Inc., priority 2020, dated 2023):
pKd: −log10 of the molar value.

Sequences of proteins named here, by UniProt entry; tags and fusion partners are left off. Residues count along the entry.
UniProt O60674, 849-1124 Y1007F/Y1008F: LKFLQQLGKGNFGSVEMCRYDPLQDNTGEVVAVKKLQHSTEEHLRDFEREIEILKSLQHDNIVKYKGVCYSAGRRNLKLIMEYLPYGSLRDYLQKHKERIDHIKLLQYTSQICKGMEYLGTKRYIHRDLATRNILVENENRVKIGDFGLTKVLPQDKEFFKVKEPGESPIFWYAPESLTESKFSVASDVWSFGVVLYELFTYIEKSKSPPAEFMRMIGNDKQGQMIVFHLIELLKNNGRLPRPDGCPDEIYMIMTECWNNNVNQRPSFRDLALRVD

target: T1, JAK2 (JH1domain-catalytic, Y1007F,Y1008F) kinase (Homo sapiens (Human), UniProt O60674, Y1007F/Y1008F); test: biochemical; conditions: not given

Compound | pKd
Cn1c(Nc2cc(C(C)(C)C)on2)nc2ccc(Oc3ccnc(NC(=O)[C@H]4CC4(F)F)c3)cc21 (single isomer, unassigned) [Example I-50-a] | 6.00 to 7.30
Cn1c(Nc2cc(C(C)(C)C)on2)nc2ccc(Oc3ccnc(NC(=O)[C@@H]4CC4(F)F)c3)cc21 (single isomer, unassigned) [Example I-50-b] | 6.00 to 7.30
CC(=O)Nc1cc(Oc2ccc3nc(Nc4cc(C(F)(F)F)cn(C[C@H]5COCCO5)c4=O)n(C)c3c2)ccn1 (single isomer, unassigned) [Example I-58-b] | 6.00 to 7.30
CO[C@@H]1CCOC[C@H]1n1cc(C(F)(F)F)cc(Nc2nc3ccc(Oc4ccnc(NC(C)=O)c4)cc3n2C)c1=O (single isomer, unassigned) [Example I-59-a] | 7.30 to 8.00
CO[C@H]1CCOC[C@@H]1n1cc(C(F)(F)F)cc(Nc2nc3ccc(Oc4ccnc(NC(C)=O)c4)cc3n2C)c1=O (single isomer, unassigned) [Example I-59-b] | 7.30 to 8.00
CO[C@H]1CCOC[C@H]1n1cc(C(F)(F)F)cc(Nc2nc3ccc(Oc4ccnc(NC(C)=O)c4)cc3n2C)c1=O (single isomer, unassigned) [Example I-60-a] | 7.30 to 8.00
CO[C@@H]1CCOC[C@@H]1n1cc(C(F)(F)F)cc(Nc2nc3ccc(Oc4ccnc(NC(C)=O)c4)cc3n2C)c1=O (single isomer, unassigned) [Example I-60-b] | > 8.00
CC(=O)Nc1cc(Oc2ccc3nc(Nc4cc(C5CC5)cn([C@@H]5CCCOC5)c4=O)n(C)c3n2)ccn1 (single isomer, unassigned) [Example I-67-a] | > 8.00
CC(=O)Nc1cc(Oc2ccc3nc(Nc4cc(C5CC5)cn([C@H]5CCCOC5)c4=O)n(C)c3n2)ccn1 (single isomer, unassigned) [Example I-67-b] | > 8.00
CO[C@@H]1CC[C@@H]1Cn1cc(C2CC2)cc(Nc2nc3ccc(Oc4ccnc(NC(C)=O)c4)cc3n2C)c1=O (single isomer, unassigned) [Example I-76-a] | > 8.00
CC(=O)Nc1cc(Oc2ccc3nc(Nc4cc(C5CC5)cn(C[C@H]5CC[C@H]5O)c4=O)n(C)c3c2)ccn1 (single isomer, unassigned) [Example I-77-a] | > 8.00
CC(=O)Nc1cc(Oc2ccc3nc(Nc4cc(C5CC5)cn(C[C@@H]5CC[C@@H]5O)c4=O)n(C)c3c2)ccn1 (single isomer, unassigned) [Example I-77-b] | > 8.00
CC(=O)Nc1cc(Oc2ccc3nc(Nc4cc(C5CC5)cn([C@@H]5CC[C@@H]5O)c4=O)n(C)c3c2)ccn1 (single isomer, unassigned) [Example I-78-a] | > 8.00
CC(=O)Nc1cc(Oc2ccc3nc(Nc4cc(C5CC5)cn([C@H]5CC[C@H]5O)c4=O)n(C)c3c2)ccn1 (single isomer, unassigned) [Example I-78-b] | 7.30 to 8.00
CC(=O)Nc1cc(Oc2ccc3nc(Nc4cc(C5CC5)cn([C@@H]5CC[C@H]5O)c4=O)n(C)c3c2)ccn1 (single isomer, unassigned) [Example I-79-a] | > 8.00
CC(=O)Nc1cc(Oc2ccc3nc(Nc4cc(C5CC5)cn([C@H]5CC[C@@H]5O)c4=O)n(C)c3c2)ccn1 (single isomer, unassigned) [Example I-79-b] | > 8.00
CC(=O)Nc1cc(Oc2ccc3nc(Nc4cc(C5CC5)nn(C[C@@H]5COC(C)(C)C5)c4=O)n(C)c3c2)ccn1 (single isomer, unassigned) [Example I-87-a] | 6.00 to 7.30
CC(=O)Nc1cc(Oc2ccc3nc(Nc4cc(C5CC5)nn(C[C@H]5COC(C)(C)C5)c4=O)n(C)c3c2)ccn1 (single isomer, unassigned) [Example I-87-b] | 6.00 to 7.30
CC(=O)Nc1cc(Oc2cnc3nc(Nc4cc(C(C)(C)C)n(C[C@@H]5CCN(CC(F)(F)F)C5)n4)n(C)c3c2C)ccn1 (single isomer, unassigned) [Example I-128-a] | 6.00 to 7.30
CC(=O)Nc1cc(Oc2cnc3nc(Nc4cc(C(C)(C)C)n(C[C@H]5CCN(CC(F)(F)F)C5)n4)n(C)c3c2C)ccn1 (single isomer, unassigned) [Example I-128-b] | 6.00 to 7.30
CC(=O)Nc1cc(Oc2cnc3nc(Nc4cc(C(C)(C)C)n(C[C@@H]5COCCO5)n4)n(C)c3c2C)ccn1 (single isomer, unassigned) [Example I-129-b] | > 8.00
Cn1c(Nc2cc(C(C)(C)C)n(C[C@H]3COCCO3)n2)nc2ncc(Oc3ccnc(NC(=O)C4CC4)c3)cc21 (single isomer, unassigned) [Example I-135-a] | > 8.00
CC(=O)Nc1cc(Oc2cnc3nc(Nc4cc(C(C)(C)C)n(C[C@H]5CCN(C)CC5(F)F)n4)n(C)c3c2)ccn1 (single isomer, unassigned) [Example I-148-a] | 5.30 to 6.00
CC(=O)Nc1cc(Oc2cnc3nc(Nc4cc(C(C)(C)C)n(C[C@@H]5CCN(C)CC5(F)F)n4)n(C)c3c2)ccn1 (single isomer, unassigned) [Example I-148-b] | 5.30 to 6.00

target: T1, JAK2 (JH1domain-catalytic, Y1007F,Y1008F) kinase; test: not given; conditions: read-out: JAK2 Kd

Compound | pKd
N-(4-((7-chloro-2-((1-((1s,3s)-3-methoxycyclobutyl)-5-(perfluoroethyl)-1H-pyrazol-3-yl)amino)-1-methyl-1H-imidazo[4,5-b]pyridin-6-yl)oxy)pyridin-2-yl)acetamide [Example I-159] | > 8.00

same assay, conditions: read-out: JAK2 Kd; JAK2 JH1 domain-catalytic, Y1007F,Y1008F; qPCR readout

Compound | pKd
CC(=O)Nc1cc(Oc2cnc3nc(Nc4cc(C(C)(C)C#N)n(C5CC6(COC6)C5)n4)n(C)c3c2C(F)F)ccn1 [Example I-194, N-(4-((2-((5-(2-cyanopropan-2-yl)-1-(2-oxaspiro[3.3]heptan-6-yl)-1H-pyrazol-3-yl)amino)-7-(difluoromethyl)-1-methyl-1H-imidazo[4,5-b]pyridin-6-yl)oxy)pyridin-2-yl)acetamide] | > 8.00
COc1c(Oc2ccnc(NC(=O)C3CC3)c2)cnc2nc(Nc3cc(C(C)(C)C)n(C4CC5(COC5)C4)n3)n(C)c12 [Example I-196, N-(4-((2-((5-(tert-butyl)-1-(2-oxaspiro[3.3]heptan-6-yl)-1H-pyrazol-3-yl)amino)-7-methoxy-1-methyl-1H-imidazo[4,5-b]pyridin-6-yl)oxy)pyridin-2-yl)cyclopropanecarboxamide] | > 8.00
Cn1cc(C2CC2)cc(Nc2nc3ncc(Oc4ccnc(NC(=O)C5CC5)c4)c(Cl)c3n2C)c1=O [Example I-197, N-(4-((7-chloro-2-((5-cyclopropyl-1-methyl-2-oxo-1,2-dihydropyridin-3-yl)amino)-1-methyl-1H-imidazo[4,5-b]pyridin-6-yl)oxy)pyridin-2-yl)cyclopropanecarboxamide] | > 8.00
Cn1cc(C2CC2)cc(Nc2nc3ncc(Oc4ccnc(NC(=O)C5CC5)c4)c(C(F)F)c3n2C)c1=O [Example I-199, N-(4-((2-((5-cyclopropyl-1-methyl-2-oxo-1,2-dihydropyridin-3-yl)amino)-7-(difluoromethyl)-1-methyl-1H-imidazo[4,5-b]pyridin-6-yl)oxy)pyridin-2-yl)cyclopropanecarboxamide] | > 8.00
Cn1c(Nc2cc(C(C)(C)C)n(C3CC(CO)(CO)C3)n2)nc2ncc(Oc3ccnc(NC(=O)C4CC4)c3)cc21 [Example I-200, N-(4-((2-((1-(3,3-bis(hydroxymethyl)cyclobutyl)-5-(tert-butyl)-1H-pyrazol-3-yl)amino)-1-methyl-1H-imidazo[4,5-b]pyridin-6-yl)oxy)pyridin-2-yl)cyclopropanecarboxamide] | > 8.00
COc1c(Oc2ccnc(NC(=O)C3CC3)c2)cnc2nc(Nc3cc(C(F)(F)F)cn(C)c3=O)n(C)c12 [Example I-201, N-(4-((7-methoxy-1-methyl-2-((1-methyl-2-oxo-5-(trifluoromethyl)-1,2-dihydropyridin-3-yl)amino)-1H-imidazo[4,5-b]pyridin-6-yl)oxy)pyridin-2-yl)cyclopropanecarboxamide] | > 8.00
CC(=O)Nc1cc(Oc2cnc3nc(Nc4cc(C5CC5)cn(C)c4=O)n(C)c3c2Cl)ccn1 [Example I-202, N-(4-((7-chloro-2-((5-cyclopropyl-1-methyl-2-oxo-1,2-dihydropyridin-3-yl)amino)-1-methyl-1H-imidazo[4,5-b]pyridin-6-yl)oxy)pyridin-2-yl)acetamide] | > 8.00
CCN1CCN(Cc2ccc(Nc3nc4ncc(Oc5ccnc(NC(C)=O)c5)c(Cl)c4n3C)cc2C(F)(F)F)CC1 [Example I-203, N-(4-((7-chloro-2-((4-((4-ethylpiperazin-1-yl)methyl)-3-(trifluoromethyl)phenyl)amino)-1-methyl-1H-imidazo[4,5-b]pyridin-6-yl)oxy)pyridin-2-yl)acetamide] | > 8.00
CC(=O)Nc1cc(Oc2cnc3nc(Nc4cc(C(F)(F)F)cn(CCCN5CCOCC5)c4=O)n(C)c3c2Cl)ccn1 [Example I-204, N-(4-((7-chloro-1-methyl-2-((1-(3-morpholinopropyl)-2-oxo-5-(trifluoromethyl)-1,2-dihydropyridin-3-yl)amino)-1H-imidazo[4,5-b]pyridin-6-yl)oxy)pyridin-2-yl)acetamide] | > 8.00
COc1c(Oc2ccnc(NC(C)=O)c2)cnc2nc(Nc3cc(C(F)(F)F)cn(CCCN4CCOCC4)c3=O)n(C)c12 [Example I-206, N-(4-((7-methoxy-1-methyl-2-((1-(3-morpholinopropyl)-2-oxo-5-(trifluoromethyl)-1,2-dihydropyridin-3-yl)amino)-1H-imidazo[4,5-b]pyridin-6-yl)oxy)pyridin-2-yl)acetamide] | > 8.00
CC(=O)Nc1cc(Oc2cnc3nc(Nc4cc5n(n4)CCCC5(C)C)n(C)c3c2Cl)ccn1 [Example I-208, N-(4-((7-chloro-2-((4,4-dimethyl-4,5,6,7-tetrahydropyrazolo[1,5-a]pyridin-2-yl)amino)-1-methyl-1H-imidazo[4,5-b]pyridin-6-yl)oxy)pyridin-2-yl)acetamide] | > 8.00
CC(=O)Nc1cc(Oc2cnc3nc(Nc4cc(C(F)(F)F)cn(C)c4=O)n(C)c3c2Cl)ccn1 [Example I-210, N-(4-((7-chloro-1-methyl-2-((1-methyl-2-oxo-5-(trifluoromethyl)-1,2-dihydropyridin-3-yl)amino)-1H-imidazo[4,5-b]pyridin-6-yl)oxy)pyridin-2-yl)acetamide] | > 8.00
